# Assay results from patent publication US8686113B2 (priority 2009, dated 2014).
# System: SH-SY5Y cells
# Format: cell-based
# Details: human, 24 h, 400 µg/mL
# Method: The cytotoxicity of the peptides, peptidomimetics and penetratin constructs was determined with the “Cell Proliferation Kit I” from the company Roche Diagnostics GmbH (Mannheim, Germany). The method is based on reduction of the yellow methylthiazolyldiphenyl tetrazolium bromide (MTT) by cellular oxidoreductases of metabolically active cells (Vistica D T et al. Tetrazolium-Based Assays for Cellular Viability-A Critical Examination of Selected Parameters Affecting Formazan Production. Cancer Research 51: 2515-20, 1991; Slater T F, Sawyer B, & Strauli U. Studies on Succinate-Tetrazolium Reductase Systems. 3. Points of Coupling of 4 Different Tetrazolium Salts. Biochimica et Biophysica Acta 11: 383-&, 1963; Berridge […]. […] Archives of Biochemistry and Biophysics 303: 474-82, 1993). The formation of the water-insoluble purple-colored formazan product is proportional to the number of viable cells and can be detected photometrically after cell lysis. Cell culture was carried out in cell culture bottles (25 cm^2) with a filter cap or in 96-well microtiter plates (Greiner Bio-One GmbH, Frickenhausen, Germany) at 37° C. under 5% CO2 and 95% air humidity. All media and additives were obtained from PAA Laboratories (Pasching, Austria). […] HeLa or SH-SY5Y cells were plated out in sterile 96-well microtiter plates with a concentration of 2×10^4 cells/well and were incubated overnight. […]
substance,measurement,value
RQIKIWFQNRRMKWKKC(CH2CO-ffSGDRSGYSSRGS-OH)-OH [SEQ ID NO. 106],proportion of growing SH-SY5Y cells,70%
